# Values of other authors in US20120130144A1, “TREATMENT OF LUNG CANCER WITH A NITROBENZAMIDE COMPOUND IN COMBINATION WITH A GROWTH FACTOR INHIBITOR” (BiPar Sciences, Inc., priority 2009, published 2012).
# Test system: NSCLC cells with mutant EGFR
# Conditions: NSCLC cells with mutant but not wild-type EGFR; cited from earlier work
smiles,measurement,value
"COc1cc2ncnc(Nc3ccc(F)c(Cl)c3)c2cc1OCCCN1CCOCC1 [GFT, gefitinib]",apoptosis following gefitinib treatment,undergo apoptosis
